Experimental data as given in patent EP3683219A1, “COMPOUND INHIBITING BUTYRYLCHOLINESTERASE” (Julius-Maximilians-Universität Würzburg, priority 2019, dated 2020).

Protein sequences, listed by entry. Tags and fused reporters are not part of them. Residues count along the entry.
UniProt P06276, 29-602 limits assumed: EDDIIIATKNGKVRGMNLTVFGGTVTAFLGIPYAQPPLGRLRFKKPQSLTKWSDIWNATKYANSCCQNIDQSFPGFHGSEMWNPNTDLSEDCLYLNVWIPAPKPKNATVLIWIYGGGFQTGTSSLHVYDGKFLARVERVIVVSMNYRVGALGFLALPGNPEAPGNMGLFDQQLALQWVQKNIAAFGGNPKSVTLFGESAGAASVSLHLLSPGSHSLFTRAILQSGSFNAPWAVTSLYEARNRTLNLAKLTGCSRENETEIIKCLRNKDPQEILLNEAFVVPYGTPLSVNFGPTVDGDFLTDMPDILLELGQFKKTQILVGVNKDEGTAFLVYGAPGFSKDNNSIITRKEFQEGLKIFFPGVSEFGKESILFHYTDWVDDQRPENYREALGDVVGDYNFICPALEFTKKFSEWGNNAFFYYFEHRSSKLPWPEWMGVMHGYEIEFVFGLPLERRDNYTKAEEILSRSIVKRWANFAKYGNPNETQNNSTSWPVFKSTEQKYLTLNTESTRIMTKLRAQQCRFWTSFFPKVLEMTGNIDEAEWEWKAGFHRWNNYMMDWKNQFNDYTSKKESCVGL
UniProt P22303, 32-614 limits assumed: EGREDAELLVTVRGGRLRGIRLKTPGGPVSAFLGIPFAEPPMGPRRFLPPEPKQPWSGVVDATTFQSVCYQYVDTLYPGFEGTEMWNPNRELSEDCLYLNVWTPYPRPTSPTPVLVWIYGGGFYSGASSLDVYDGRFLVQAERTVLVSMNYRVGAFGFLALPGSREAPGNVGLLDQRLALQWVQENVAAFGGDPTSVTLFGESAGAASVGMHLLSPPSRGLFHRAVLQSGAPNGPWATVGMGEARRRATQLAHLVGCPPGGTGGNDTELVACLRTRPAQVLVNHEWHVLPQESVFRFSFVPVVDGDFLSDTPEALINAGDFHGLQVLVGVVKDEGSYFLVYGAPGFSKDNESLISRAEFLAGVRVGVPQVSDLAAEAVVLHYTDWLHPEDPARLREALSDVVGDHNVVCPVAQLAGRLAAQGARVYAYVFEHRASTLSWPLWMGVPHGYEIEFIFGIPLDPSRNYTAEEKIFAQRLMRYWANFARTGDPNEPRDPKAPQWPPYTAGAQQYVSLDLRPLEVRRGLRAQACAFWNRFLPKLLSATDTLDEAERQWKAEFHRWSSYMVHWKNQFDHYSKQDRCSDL

Key:
[1] = biological target: T1, hBChE (Homo sapiens, UniProt P06276); conditions: hAChE over hBChE
[2] = biological target: hAChE (Homo sapiens, UniProt P22303); conditions: cited from earlier work
[3] = biological target: T1, hBChE; conditions: cited from earlier work
[4] = biological target: T1, hBChE; conditions: cited from earlier work; remark: listed apart in the source
[5] = system: Aβ25-35-induced spontaneous alternation deficits; assay: Spontaneous alternation test in the Y-maze, Aβ25-35-injected mice; type: in vivo, male Swiss mice; conditions: 0.3-3 mg/kg ip o.d. day 1 to 7; Y-maze day 8
[6] = system: Aβ25-35-induced passive avoidance impairments; assay: Step-through passive avoidance test, Aβ25-35-injected mice; type: in vivo, male Swiss mice; conditions: 0.3-3 mg/kg ip o.d. day 1 to 7; retention day 10

Row | SMILES | Selectivity index (IC50 hAChE/IC50 hBChE) [1] | IC50 [2] | Kd [3] [nM] | IC50 [4] | effect on Aβ25-35-induced spontaneous alternation deficits [5] | effect on Aβ25-35-induced passive avoidance deficits (step-through latency, retention) [6]
1 | CN1c2ccc(OC(=O)NCCCCCCCF)cc2CN2CCc3ccccc3C21 (stereo not drawn) | 692 | 3600 nM and 3630 nM | 24.3 | 5.2 nM and 5.25 nM |  | 
2 | CCCCCCCNC(=O)Oc1ccc2c(c1)CN1CCc3ccccc3C1N2C (stereo not drawn) |  |  |  |  | attenuated the Aβ25-35-induced spontaneous alternation deficits at 1 and 3 mg/kg ip doses | significantly prevented the Aβ25-35-induced passive avoidance deficits at all dose tested

“And” between values parts separate entries of the source, which are not always exact repeats. Identical values can stand only once.
